According to US20250319032A1, “PHARMACEUTICAL COMPOSITIONS OF RIBOCICLIB” (Novartis AG, priority 2024, published 2025):

Test: Validation of the HPLC-HRMS method for N-nitroso-ribociclib (precision, accuracy, linearity, LOQ, stability of standard and sample solutions)
Procedure: The method was validated in the range 0.0625 ppm to 12.5 ppm N-nitroso-ribociclib (NRR) with regard to ribociclib free base. For the purpose of this validation only, the 100% target limit was set at 3.75 ppm (1500 ng NRR/400 mg ribociclib free base).
Six replicates of the “Sample solution” were prepared according to the procedure described above and tested on the same day. The results are expressed as ppm of NNR with regard to ribociclib free base (μg NNR/g ribociclib free base)
Two series of six replicates of the “Sample solutions” were prepared according to the procedure described above and tested by two different analysts, on two different days, using different LC/MS systems and different columns. The results are expressed as ppm of NNR with regard to ribociclib free base (μg NNR/g ribociclib free base)
Three replicates of calibration standard solutions L1 (c=0.5 ng/ml) and L6 (c=100 ng/ml) were prepared according to the procedure described above. Solutions were stored in the dark at room temperature (autosampler (AS) vials). After a period of time, the solutions were reanalyzed. The stability of standard solutions is evaluated by determining the relative difference between the responses […] The results are expressed as concentration in ng/ml, determined from calibration curve in each sequence (time point).
Three replicates of Sample solution were prepared according to AP. The replicates were analysed at t=0 h and after app. […] The results are expressed as ppm of NNR wrt ribociclib free base. […]
In addition, FCT samples stored in flasks on the bench were filtered at defined time point and analysed. […]
Sample solutions were prepare according to the procedure described above using 10 mL, 25 mL and 50 mL flasks, three replicates for each volume. […] The results are expressed as ppm of NNR with regard to ribociclib free base (μg NNR/g ribociclib free base) […]
Amount of NNR present in the unspiked sample was subtracted (see above) and RSD of corrected amounts calculated.

| SMILES | NNR in sample solution, Average (ppm) (0 h, AS at room temperature) | NNR in sample solution, single replicate (24 h, AS at room temperature) | NNR (ppm), Intraday precision, single replicate (sample solution, replicates R1-R6, wrt ribociclib free base) |
| --- | --- | --- | --- |
| CN(C)C(=O)c1cc2cnc(Nc3ccc(N4CCNCC4)cn3)nc2n1C1CCCC1.O=C(O)CCC(=O)O [Ribociclib succinate drug substance] | 0.239 ppm | 0.227 ppm | – |
| CN(C)C(=O)c1cc2cnc(Nc3ccc(N4CCNCC4)cn3)nc2n1C1CCCC1.O=C(O)CCC(=O)O [ribociclib succinate drug substance] | – | – | 0.239 ppm |
